1 compound from patent US10450421B2, “Synthesis of multiarm poly[(R)-3-hydroxybutyrate] and its derivatives” (AGENCY FOR SCIENCE, TECHNOLOGY AND RESEARCH, priority 2015, dated 2019) can be followed below.

One assay deals with S. aureus. The assay can be described thus: Antimicrobial test, MIC against S. aureus. Type of assay: cell-based. As to conditions: Gram-positive bacteria S. aureus (n = 2). As for the experimental part: (§1) The solutions based on the Q-PHB-PDMAEMA were tested for efficacy in killing clinically significant pathogens: the […] and Gram-negative bacteria (E. coli).

In another assay the test system is E. coli. The assay can be described thus: Antimicrobial test, MIC against E. coli. Format: cell-based. As to conditions: Gram-negative bacteria E. coli (n = 2). As for the experimental part: as §1

≈ marks a conversion by molar mass, not a printed value.

What is called MIC is the lowest concentration found to suppress growth. Low values mean a more susceptible organism, high ones a less susceptible organism. Turning to `CC[C@H](C)[C@H](NC(=O)CN)C(=O)NCC(=O)N[C@@H](C)C(=O)N[C@H](C(=O)N[C@@H](CC(C)C)C(=O)N[C@@H](CCCCN)C(=O)N[C@H](C(=O)N[C@@H](CC(C)C)C(=O)N[C@H](C(=O)N[C@H](C(=O)NCC(=O)N[C@@H](CC(C)C)C(=O)N1CCC[C@H]1C(=O)N[C@@H](C)C(=O)N[C@@H](CC(C)C)C(=O)N[C@H](C(=O)N[C@@H](CO)C(=O)N[C@@H](Cc1c[nH]c2ccccc12)C(=O)N[C@H](C(=O)N[C@@H](CCCCN)C(=O)N[C@@H](CCCNC(=N)N)C(=O)N[C@@H](CCCCN)C(=O)N[C@@H](CCCNC(=N)N)C(=O)N[C@@H](CCC(N)=O)C(=O)N[C@@H](CCC(N)=O)C(N)=O)[C@@H](C)CC)[C@@H](C)CC)[C@@H](C)O)[C@@H](C)O)C(C)C)C(C)C` [Melittin], the MIC was 8 µg/mL (≈ 2.81 µM) with S. aureus and 63 µg/mL (≈ 22.1 µM) in the assay on E. coli.
